Where two headings read alike, the source gives them in different places.
Tested on: CYP1A, CYP2B6, CYP2C9, CYP3A
Assay type: in vitro ADME, human
[1] = human hepatocytes, 1 or 10 μmol/L

SMILES | CYP induction (in words) [1] | CYP induction (in words)
CCN(c1cc(-c2ccc(OCCOC)cc2)cc(C(=O)NCc2c(C)cc(C)[nH]c2=O)c1C)[C@H]1CC[C@H](N(C)C)CC1 [Compound 1, N-((4,6-dimethyl-2-oxo-1,2-dihydropyridin-3-yl)methyl)-5-(((trans)-4-(dimethylamino)-cyclohexyl)(ethyl)-amino)-4′-(2-methoxyethoxy)-4-methyl-[1,1′-biphenyl]-3-carboxamide] | no significant induction (except potentially CYP2C9) | –
CCN(c1cc(C#CCN2CCOCC2)cc(C(=O)NCc2c(C)cc(C)[nH]c2=O)c1C)[C@H]1CC[C@H](N(C)CCOC)CC1 [Compound 2, N-((4,6-dimethyl-2-oxo-1,2-dihydropyridin-3-yl)methyl)-3-(ethyl((trans)-4-((2-methoxyethyl)(methyl)amino)cyclohexyl)amino)-2-methyl-5-(3-morpholinoprop-1-yn-1-yl)benzamide] | no induction (with slightly lower activity) | –
CCN(c1cc(C#CC2CCN(C)CC2)cc(C(=O)NCc2c(C)cc(C)[nH]c2=O)c1C)C1CCOCC1 [Compound 105, N-((4,6-Dimethyl-2-oxo-1,2-dihydropyridin-3-yl)methyl)-3-(ethyl(tetrahydro-2H-pyran-4-yl)amino)-2-methyl-5-((1-methylpiperidin-4-yl)ethynyl)benzamide] | – | induction of CYP2B6, CYP2C9, and CYP3A
